High-throughput results (PubChem BioAssay)
This is a sample that favours compounds with a hit; in the whole collection about 2.1% have one here.
PTAP TSG101 blk: blocks PTAP/TSG101 interaction to inhibit HIV-1 budding; Fluorescence polarization, FITC-PTAP peptide / Tsg101 binding; 340,000 tested, under 10 active; Potency, µM (titrated, usually from 115 µM), hits mostly inhibitors; Q99816; active = well fitted inhibition curve with a large enough effect in the main read-out, with a control signal flat, not every such curve was filed as active; inconclusive = small, poorly fitted or top-dose-only effect, or effect the other way, or a change in a side signal; inactive = no such curve, though single readings can be large or run the other way
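Fluorescence anisotropy tracks displacement of a FITC-tagged PTAP peptide (50 nM) from the Tsg101 binding domain (10 uM), following a 20 min room-temperature incubation at pH 7.5.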
A549 tox: kills or reduces viability of A549 cells in Nrf2 counter-screen; A549 ARE-Fluc cells, CellTiter-Fluor viability, 18-24 h; Potency, µM (titrated, usually from 46 µM), hits mostly inhibitors; 390,000 tested, 0.16% active; AID 504648
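A549 ARE_Fluc cells in 5% FBS OPTI-MEM were exposed to compounds in concentration-response for 18-24 h at 37 deg C. Viability was read by CellTiter-Fluor fluorescence (Ex 405/Em 525) after 30 min, before the luciferase read.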
Glioma ERSR ind: ER stress response induction in glioma; U87-MG GRP78 promoter luciferase reporter, 16 h; Potency, µM, hits mostly activators; 420,000 tested, 0.02% active; also: series mostly up to about 76 µM; nearly all actives have a fitted effect of over 35% in size
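Stably transfected U87-MG glioma cells carrying a GRP78-based luciferase sensor; 16 h compound incubation. Luminescence end-point read 10 min after Bright-Glo addition at room temperature.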
miR-21 reporter: miR-21 reporter, rising signal; HeLa miR-21 FLuc reporter, luciferase, 48 h; Potency, µM (doses to about 38.3 µM); 340,000 tested, under 10 active; AID 2288; active = well fitted rising curve with a large enough effect; inconclusive = small, poorly fitted or top-dose-only effect; inactive = no such curve, though single readings can be large or run the other way;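 further: miR-21 action dims this reporter so a rising signal means less miR-21 action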
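HeLa miR-21-FLuc reporter line, endogenous miR-21; 2000 cells/well in DMEM/10% FBS; compound titration up to ~40uM final, 48 h, 37 degree Celsius; luciferase detection reagent, 15 min lysis, CCD luminescence.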
Nrf2 activator: Nrf2 pathway activation | Potency, µM (titrated, usually from 46.1 µM), hits mostly activators | 410,000 tested, 0.31% active | AREc32 ARE-luciferase reporter (MCF7-derived line), luminescence, 24 h; also: nearly all actives have a fitted effect of over 65% in size
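Quantitative high-throughput format: AREc32 reporter cells, 1000 per well, received compound by pin transfer and were incubated 24 hr at 37 deg C, 5% CO2, before Steady-Glo luminescence detection.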
Nrf2 inh: Nrf2 pathway inhibition. A549 ARE-Fluc reporter, luciferase luminescence, 18-24 h. Potency, µM (titrated, usually from 46 µM), hits mostly inhibitors. 360,000 tested, 2.1% active; also: nearly all actives have a fitted effect of over 60% in size
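Nrf2 function is reported as luminescence of an ARE-controlled luciferase in A549 cells. Compounds were tested at several concentrations, and a CellTiter-Fluor read on the same wells flagged cytotoxicity.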
Numbers stand for hits; - = inactive; ? = inconclusive; . = not tested or not shown. Unless noted, calls follow the shape of the dose curve; as a rule, active = well fitted curve in the direction sought with a large enough effect; inconclusive = small, poorly fitted or top-dose-only effect, or another doubt; inactive = no such curve, though single readings can be large; an effect the other way counts as inactive or inconclusive.

SMILES	PTAP TSG101 blk	A549 tox	Glioma ERSR ind	miR-21 reporter	Nrf2 activator	Nrf2 inh
Cc1ccccc1S(=O)(=O)N1CCN(S(=O)(=O)c2ccc3c(c2)OCCO3)CC1	.	-	.	.	.	-
O=C(Nc1nccs1)C1CCN(S(=O)(=O)c2c(Cl)cccc2Cl)CC1	-	-	-	-	-	16.4µM
O=C(Nc1nccs1)C1CCN(S(=O)(=O)c2ccc(F)cc2)CC1	-	-	-	-	-	-
CCCCCCCCCCCCCCCCCCOP(=O)([O-])OC1CC[N+](C)(C)CC1	.	.	-	.	.	.
N#Cc1c(-c2cccs2)cc(-c2ccccn2)nc1N	-	-	?	-	7.94µM	.
N#Cc1c(-c2cccs2)cc(-c2cccnc2)nc1N	-	-	-	-	-	-
Cc1ccc(C)c2c1NC(C(=O)O)C1CC=CC21 (configuration not stated)	.	-	-	.	.	-
COc1ccc(OC)c(CNn2c(-c3cccc(C)c3)nc3ccccc3c2=O)c1	-	-	-	-	-	18.4µM
CN1CCN(c2ccnc(N(C)CCCCCCN)n2)CC1	.	.	-	.	.	.
CCOC(=O)c1ccc(-n2cnc3c(c2=N)C(c2cccc(OC)c2)c2c(ccc4ccccc24)O3)cc1 (configuration not stated)	.	-	.	.	.	-
CS(=O)(=O)/C=C/c1nc(Nc2cc(F)cc(F)c2)c2ncn(CC(F)F)c2n1	.	-	.	.	.	-
Cc1cc2c(s1)c1cnn(Cc3c(F)ccc(Cl)c3F)c(=O)c1n2C	.	-	.	.	.	-
CC1=C(C(=O)OCC2CCCCC2)C(c2cccc(O)c2)NC(=O)N1 (configuration not stated)	.	.	.	-	.	.
CC1=C(C(=O)OC2CCCCCCC2)C(c2cccc(O)c2)NC(=O)N1 (configuration not stated)	-	-	-	-	-	25.9µM
CC1=C(C(=O)OC2CCCCCC2)C(c2cccc(Cl)c2)CC(=O)N1 (configuration not stated)	.	-	-	-	-	16.4µM
c1ccc(CNCc2nnc(-c3cc4ccccc4[nH]3)o2)cc1	.	-	.	.	.	-
COC(=O)c1c(NC(=O)c2cc3ccccc3c(=O)o2)sc2c1CCCC2	.	-	-	-	12.6µM	-
CCCOC(=O)c1c(NC(=O)c2cc3ccccc3c(=O)o2)sc2c1CCC(C)C2 (configuration not stated)	.	-	-	-	-	-
Cc1nc2ccccc2c2oc(C(=O)NCC3COc4ccccc4O3)cc12 (configuration not stated)	-	-	-	-	-	16.4µM
CCc1ccc(CNC(=O)c2cc3c(C)nc4ccccc4c3o2)cc1	-	-	-	-	-	14.6µM
COc1cccc(CNC(=O)c2cc3c(C)nc4ccccc4c3o2)c1	-	-	-	-	-	-
COc1ccc(C2c3c(N)nc(CCc4ccccc4)nc3Oc3ccc4ccccc4c32)cc1OC (configuration not stated)	.	-	.	.	.	?
CC(=O)N1c2ccc(S(=O)(=O)N3CCC(C(=O)Nc4ccccn4)CC3)cc2CC1C (configuration not stated)	-	-	-	-	-	18.4µM
COc1ccccc1N1CCN(C(=O)C2CCN(S(=O)(=O)c3ccc4c(c3)CC(C)N4C(=O)C3CC3)CC2)CC1 (configuration not stated)	-	-	-	-	-	25.9µM
COc1ccccc1N1CCN(C(=O)C2CCN(S(=O)(=O)c3ccc4c(c3)CC(C)N4C(C)=O)CC2)CC1 (configuration not stated)	-	-	-	-	-	-
SMILES	PTAP TSG101 blk	A549 tox	Glioma ERSR ind	miR-21 reporter	Nrf2 activator	Nrf2 inh
CC(=O)N1c2ccc(S(=O)(=O)N3CCC(C(=O)N4CCCC(C)C4)CC3)cc2CC1C (configuration not stated)	-	-	-	-	-	16.4µM
CC(=O)N1c2ccc(S(=O)(=O)N3CCC(C(=O)Nc4ncccc4C)CC3)cc2CC1C (configuration not stated)	-	-	-	-	-	-
Cc1cc(Cl)ccc1OCC(=O)Nc1cccc(-c2nc3ccccc3o2)c1	.	.	-	.	.	.
COc1cc(-c2cccc(Cl)c2)cc2c1OCCN(C(=O)CCn1ccc(C)n1)C2	.	.	-	.	.	.
O=C(NCC1CCCO1)c1cc(-c2ccncc2)nc2ccccc12 (configuration not stated)	-	-	-	.	-	-
CN(C)C(CNC(=O)c1cc(-c2ccco2)nc2ccccc12)c1ccccc1 (configuration not stated)	-	-	-	.	12.6µM	?
NC(=O)COC(=O)c1cc(-c2ccco2)nc2ccccc12	-	-	?	-	3.55µM	-
O=C(NCC1CCCO1)c1cc(-c2ccco2)nc2ccccc12 (configuration not stated)	-	-	-	-	11.2µM	-
O=C1CC(C(=O)N2CCCC(c3nc(-c4ccncc4)ncc3-c3ccccc3)C2)C2(CCCCC2)O1 (configuration not stated)	.	.	-	.	.	.
CC(C)Cc1nc2cc(NS(=O)(=O)N(C)C)cc(C(=O)N3CCOc4ccccc4C3)c2n1C	.	.	-	.	.	.
Cc1cc(NC(=O)CC2CCCC2)n(-c2nc3ccccc3[nH]2)n1	-	?	-	-	-	25.9µM
O=c1[nH]c(O)c(/C=C2\C=Nc3ccc(Br)cc32)[nH]1	-	-	-	-	10µM	-
CSc1ccc(C(=O)C2CCCN(C(=O)c3nn(C)c(=O)c4ccccc34)C2)cc1 (configuration not stated)	-	-	-	-	-	18.4µM
CC(C)N(c1ccc(C=O)cc1)C(C)C	.	.	-	.	.	.
C=C1C(=O)O[C@H]2C1CC[C@@](C)(O)C13C=CC(C)(C21)C1(C3)C(=O)O[C@@H]2C3C(C)=CCC3[C@](C)(O)C[C@H](OC(C)=O)C21 (some centres not stated)	-	-	-	-	15.8µM	-
C=C1CCC(OC(C)=O)/C(C)=C/CC2[C@H]1CC2(C)C (some centres not stated)	.	.	-	.	.	.
Cc1ccc(-n2ncc3c(NCc4cccnc4)ncnc32)c(C)c1	-	-	-	-	-	9.2µM
Cc1cccc(-n2ncc3c(NCc4cccnc4)ncnc32)c1	-	-	-	-	-	?
COc1ccc(NS(=O)(=O)c2ccc(Oc3ncccn3)cc2)cc1	-	-	-	-	-	20.6µM
O=[N+]([O-])c1ccc(Oc2ccc(S(=O)(=O)Nc3ccccc3)cc2)cc1	-	-	-	-	-	18.4µM
COc1ccc(NS(=O)(=O)c2ccc(-c3coc(C)n3)cc2)cc1	-	-	-	-	-	16.4µM
O=[N+]([O-])c1ccc(S(=O)(=O)Nc2ccncc2)cc1	-	-	-	-	-	-
